Data reported in US20240358659A1, “Uses of Propranolol for Managing Viral Infections” (Emory University, priority 2021, published 2024).
pEC50: −log10 of the molar value.

System: SARS-CoV-2
Conditions: Severe acute respiratory syndrome coronavirus 2, Vero C1008, read-out: 50% inhibitory concentration in cytopathic effect reduction assay (EC50)

SMILES	pEC50
CC(C)NC[C@@H](O)COc1cccc2ccccc12 [R-propranolol, (R)-(+)-1-(isopropylamino)-3-(naphthalen-1-yloxy)propan-2-ol]	4.91
CC(C)NC[C@H](O)COc1cccc2ccccc12 [S-propranolol, (S)-(−)-1-(isopropylamino)-3-(naphthalen-1-yloxy)propan-2-ol]	4.81
